Reference: patent US10815192B2
Values after ≈ are worked out from the molar mass of the structure shown. Only a part of the results on these compounds is given; other tests are left out.

Columns and labels:
[1] = test system: antibodies from Immunogen 2 (further sheep); experiment: Competitive immunoassay, antibodies of further sheep, Immunogen 2 and Hapten 2 as tracer
Method: (§1) In order to generate polyclonal antisera, 2 mgs of the immunogen-2 is prepared in PBS, mixed at a ratio of 50% immunogen in PBS to 50% Freund's Complete adjuvant (Sigma, Product Number F5881) and emulsified by repeatedly passing the mixture through a tip on the end of a 1 ml syringe, until it reaches the required semi-solid consistency. 1 ml of the emulsified mixture is injected intramuscularly into each host animal (sheep) as the primary immunization dose. Further injections (boosts) are prepared (1 mg of immunogen is prepared in PBS and mixed at a ratio of 50% Immunogen in PBS/50% Freunds Incomplete adjuvant, Sigma, Product Number—F5506). Boost injections are delivered intramuscularly at monthly intervals, 1 ml per animal. Serum is sampled monthly by collection of whole blood from the jugular vein for evaluation of the antibody titre. The degree of antibody purification required depends on the intended application. For many purposes, there is no requirement for purification of the serum, however, in other cases, such as where the antibody is to be immobilized on a solid support, purification steps (such as caprylic acid/ammonium sulphate precipitation) can be taken to remove undesired material and eliminate non-specific binding. Immunoassay development follows a standard process. A detecting agent (hapten conjugated to HRP) is added to a sample containing the target analyte and the raised antibodies, promoting competition between the detecting agent and analyte for binding to the antibodies. […] The signal can be detected or quantified by comparison with a calibrator which comprises known levels of target analyte. The cross-reactivity (CR) can be calculated using the equation below in which calculations are based upon binding and displacement at the 50% of maximum OD (optical density) binding point. […]

[2] = test system: antibodies from Immunogen 2 (further sheep); experiment: Competitive immunoassay, antibodies of further sheep, Immunogen 2 and Hapten 1 as tracer
Method: as §1

[3] = test system: polyclonal antibodies from immunogen-2; experiment: Competitive immunoassay, polystyrene solid support, polyclonal antibodies from immunogen-2 (RS3706), Hapten 2 as tracer; details: for IC50 (standard concentration which produces 50% inhibition of maximal signal): polystyrene, 37° C., incubation 2 hours; for % CR (cross-reactivity): relative to U-47700 = 100%
Method: In order to generate polyclonal antisera, 2 mgs of the immunogen-2 is prepared in PBS, mixed at a ratio of 50% immunogen in PBS to 50% Freund's Complete adjuvant (Sigma, Product Number F5881) and emulsified by repeatedly passing the mixture through a tip on the end of a 1 ml syringe, until it reaches the required semi-solid consistency. 1 ml of the emulsified mixture is injected intramuscularly into each host animal (sheep) as the primary immunization dose. Further injections (boosts) are prepared (1 mg of immunogen is prepared in PBS and mixed at a ratio of 50% Immunogen in PBS/50% Freunds Incomplete adjuvant, Sigma, Product Number—F5506). Boost injections are delivered intramuscularly at monthly intervals, 1 ml per animal. Serum is sampled monthly by collection of whole blood from the jugular vein for evaluation of the antibody titre. The degree of antibody purification required depends on the intended application. For many purposes, there is no requirement for purification of the serum, however, in other cases, such as where the antibody is to be immobilized on a solid support, purification steps (such as caprylic acid/ammonium sulphate precipitation) can be taken to remove undesired material and eliminate non-specific binding.
Immunoassay development follows a standard process. A detecting agent (hapten conjugated to HRP) is added to a sample containing the target analyte and the raised antibodies, promoting competition between the detecting agent and analyte for binding to the antibodies. The antibodies are contacted with a solid support; for example, following dilution of the antibodies in coating buffer the antibody-containing buffer is added to the solid support and incubated, typically at approximately 37° C. for about 2 hours, to allow antibody binding to surface. The antibodies can be polyclonal or monoclonal using standard techniques. The signal emitted in the immunoassay is proportionate to the amount of detecting agent bound to the antibodies which in turn is inversely proportionate to the analyte concentration. The signal can be detected or quantified by comparison with a calibrator which comprises known levels of target analyte. The cross-reactivity (CR) can be calculated using the equation below in which calculations are based upon binding and displacement at the 50% of maximum OD (optical density) binding point. The maximum OD is the signal generated using tracer alone and 50% displacement (inhibition) corresponds to the IC50. % CR=(OD without cross-reactant−OD with cross-reactant)×100 Using the above immunoassay development method (solid support=polystyrene, polyclonal antibodies from immunogen-2, temp=37° C., incubation 2 hours, using Hapten 2 as tracer) and quantification method the following % CR results were arrived at […]

[4] = test system: U-47700 targeted antibodies of the invention; experiment: NPS II biochip assay on the Evidence Investigator platform
Text: Similar cross-reactivity results were obtained using an NPS II biochip assay on the Evidence Investigator platform, which is a semi-automated benchtop platform that facilitates simultaneous detection of multiple drug metabolites from a single sample (Randox Laboratories Ltd, Crumlin, Northern Ireland, UK).

Row | Compound | % CR [1] [%] | IC50 [1] [ng/mL] | % CR [2] [%] | IC50 [2] [ng/mL] | IC50 (standard concentration which produces 50% inhibition of maximal signal) [3] [ng/mL] | % CR (cross-reactivity) [3] [%] | % CR [4] [%]
1 | CN(C)C1CCCCC1N(C)C(=O)c1ccc(Cl)c(Cl)c1 (stereo not drawn) | 100 | 2.140 (≈ 6.5 nM) | 100 | 0.741 (≈ 2.25 nM) | 0.722 | 100.00 | 100.0
2 | CNC1CCCCC1N(C)C(=O)c1ccc(Cl)c(Cl)c1 (stereo not drawn) | 17.30 |  | 23.40 |  | 3.61 | 20 | 24.3
